Yeast mating assay B: variants of the scFv Ab-14

From the AlphaSeq antibody data of Li et al. 2023 (doi:10.1038/s41467-023-39022-2), copy in the FLAb collection.

Binding partner: SARS-CoV-2 spike HR2 peptide, sequence PDVDLGDISGINAS.

Ab-14 is the parent antibody, in scFv form: VH, then three GGGGS repeats, then VL. The heavy chain is unchanged in all variants.
VH: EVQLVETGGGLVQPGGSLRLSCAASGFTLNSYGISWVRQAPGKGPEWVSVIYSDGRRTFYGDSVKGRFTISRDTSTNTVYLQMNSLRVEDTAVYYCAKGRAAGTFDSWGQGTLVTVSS
VL: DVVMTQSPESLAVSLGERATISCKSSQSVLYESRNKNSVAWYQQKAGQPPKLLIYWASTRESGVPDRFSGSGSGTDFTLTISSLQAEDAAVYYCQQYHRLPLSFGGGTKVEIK

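Designed CDR sequences, proposed from the first random library and measured here. Group labels follow the data file (Ctrl: baseline library sampled from a position-specific scoring matrix, with some repeated check sequences; GP: Gaussian process model; HC: hill climbing; Gen: genetic algorithm; Gibbs: Gibbs sampling; a sequence that several methods proposed may carry one label only). The scFvs were displayed on barcoded MATa yeast, the peptide on MATalpha yeast. The frequency of each diploid, read from paired DNA barcodes, reflects how well the two displayed proteins bind. The ratio of observed to expected reads was calibrated, replicate by replicate, on BCL2-family standards whose Kd was known from biolayer interferometry. There are six technical replicates.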

Variants are written as CDR1, CDR2 and CDR3 of the light chain (limits as in the source). Parent: KSSQSVLYESRNKNSVA, WASTRES, QQYHRLPLS. This list holds designs with at most six substitutions. Kd is apparent (estimated from mating counts) and averaged on the log scale over replicates with a signal. Smaller is tighter. An entry "nd" has no value in the source: the pair was not observed among the diploids in any replicate. This suggests poor binding but is not conclusive. The list is sorted by this average, lowest first, undetected variants last. The authors' rule: three or more of the six replicates give a measured affinity, fewer mean a poor binder.

For KLSQSFLYESRNKNAVA / EASTRES / QQYHRLPLS [GP_Gen], the assay gave 250 pM (6 of 6 replicates). With KFSCGVDYESRNKNSVA / GASTRES / QQYHRLPLS [GP_Gibbs] the result was 310 pM (6 of 6 replicates). The variant KLSMSVLYESRNKNSVA / DASTRES / QQYHRLPLS [GP_Gen] gave 410 pM (6 of 6 replicates). The variant KISQSQLYESRNKNSVA / NASTRLS / QQYHRLPLS [GP_Gen] gave 620 pM (6 of 6 replicates). The variant KLSQSELYESRNKNSVA / NASCRES / QQYHRLPLS [GP_Gen] showed 620 pM (6 of 6 replicates). The variant KSSISYLEESRNKNSVA / EASTREA / QQYHRLPLS [GP_HC] gave 650 pM (6 of 6 replicates).

For KVSQSQLYESRNKNSVA / NASLRES / QQYHRLPLS [GP_Gen], the assay gave 670 pM (6 of 6 replicates). For KVSQSMLGESRNKNSVA / SASTREN / QQYHRLPLS [GP_Gibbs], the assay gave 810 pM (6 of 6 replicates). With KQSMSVLQESRNKNSVA / DASTRES / QQYHRLPLS [GP_HC] the result was 920 pM (6 of 6 replicates). For KQSQSWIYESRNKNSVA / GASTRES / QQYHRLPLS [GP_HC], the assay gave 980 pM (6 of 6 replicates). With KLSQSHLYESRNKNSVA / NASTRES / QQYHRLPLS [GP_Gen] the result was 1.0 nM (6 of 6 replicates). The variant ALSQSVLYESRNKNSVA / NASTREQ / QQYHRLPLS [GP_Gen] showed 1.2 nM (6 of 6 replicates).

With KSEQSVLTESRNKNSVA / SASTRES / QQYVRLPLS [Ctrl] the result was 1.4 nM (6 of 6 replicates). With KESQSMIYESRNKNSVA / GASTRES / QQYHRLPLS [GP_HC] the result was 1.4 nM (6 of 6 replicates). For KSSQSFYYESRNKNSVA / GASTRES / QQYHRLPLS [GP_HC], the assay gave 1.6 nM (6 of 6 replicates). The variant KLSQSDLYESRNKNSVA / NASTRSS / QQYHRLPLS [GP_Gen] gave 1.6 nM (6 of 6 replicates). The variant KLSQSELYESRNDNSVA / SASTRCE / QQYHRLPLS [GP_Gibbs] gave 1.7 nM (6 of 6 replicates). The variant KSSGSQQYEDRNKNSVA / SASQRES / QQYHRLPLS [GP_Gibbs] showed 1.8 nM (6 of 6 replicates).

The variant KSSQSILYEMRNKNSVA / DASTRES / QQYHRLPLS [Ctrl] showed 1.8 nM (6 of 6 replicates). The variant KVRQSTLYESRNKNSVA / NASTRES / QQYHRLPLS [GP_HC] gave 2.0 nM (6 of 6 replicates). The variant KALQSVLYESRNKNSVA / HASTRED / QQYHQLPLS [GP_HC] showed 2.2 nM (6 of 6 replicates). The variant KLSQSVLYESRNKNAVA / TASTRES / QQYHWLPLS [Ctrl] showed 2.4 nM (6 of 6 replicates). The variant KSSQSVLYESRNANSVA / AASLRES / QQYHRLPLS [Ctrl] gave 4.1 nM (6 of 6 replicates). The variant KLSQSVLAESRNKKSVA / TASTRES / QQYHSLPLS [Ctrl] gave 4.3 nM (6 of 6 replicates).

With KSSQSKLYESGNKNSVA / HASTRES / QQYHRLPLS [GP_HC] the result was 5.1 nM (6 of 6 replicates). The variant KSSQSVLYLSLNKNSVA / DASTRES / QQYHRLPLS [Ctrl] gave 5.9 nM (6 of 6 replicates). With KSSQSVLYESRNKNSVA / NASTRES / QQYHRLPIW [Ctrl] the result was 6.0 nM (6 of 6 replicates). With KQSQSYLYESVNKNSVA / DASTRES / QQYHRLPLS [GP_HC] the result was 7.7 nM (5 of 6 replicates). For KSSQSVLYLSRNKNSVA / WASTRES / QQYHGLPLT [Ctrl], the assay gave 17 nM (1 of 6 replicates). The variant KSSLSVLYPSRNENSVA / YASTRES / QQYHRLPLS [Ctrl] showed 19 nM (6 of 6 replicates).

For KFSQSYLIESQNKNPVA / WASTRES / QQYHRLPCS [Ctrl], the assay gave 26 nM (6 of 6 replicates). For KSSQSVLYESRNKNSVA / WASTREL / KQPHRLPLS [Ctrl], the assay gave 32 nM (1 of 6 replicates). The variant KSIQSVLWESRLKNSVA / NCSTRES / QQYHRNPLS [Ctrl] showed 52 nM (6 of 6 replicates). For KSSQYVLYESQNKNHVA / QASTRPS / QCYHRLPLS [Ctrl], the assay gave 130 nM (3 of 6 replicates). The variant KSSQSVLYESRNLNSVA / WATTRES / QQYHRLPLS [Ctrl] gave 140 nM (6 of 6 replicates). The variant KLYQSVLYESRNKNSVA / HASTRED / KQYHRLPLS [GP_HC] showed 330 nM (6 of 6 replicates).

The variant KMAQSVLYESRNKNSVA / WASTRES / QQYHRLPLS [Ctrl] showed 350 nM (3 of 6 replicates). The variant KSSQSQLDESRNKNSVA / WATTRES / QQPHRLPLS [Ctrl] showed nd (0 of 6 replicates). The variant KSRQAVMYESKNKNSVA / WASTRES / QQYHRLPLF [Ctrl] showed nd (0 of 6 replicates). With VSSQSVYYESRNKNSVA / RASTREC / QQYHRLPLS [Ctrl] the result was nd (0 of 6 replicates). The variant KFSQSVLYESVNKNSVA / WASTRES / QQYHRHPLS [Ctrl] gave nd (0 of 6 replicates). The variant KSSQSFLYESRNKNSVA / WASTQES / QQYHRLPLS [Ctrl] showed nd (0 of 6 replicates).

The variant ADSQSVLYESRNKNSVA / WASTRES / QQPHRWPLW [Ctrl] gave nd (0 of 6 replicates). The variant KSSISYLYESRNKNSVA / AASTRES / QQYHRLPLS [GP_HC] gave nd (0 of 6 replicates).

The opening 7 entries, copied out:

With KLSQSFLYESRNKNAVA / EASTRES / QQYHRLPLS [GP_Gen] the result was 250 pM (6 of 6 replicates).
With KFSCGVDYESRNKNSVA / GASTRES / QQYHRLPLS [GP_Gibbs] the result was 310 pM (6 of 6 replicates).
With KLSMSVLYESRNKNSVA / DASTRES / QQYHRLPLS [GP_Gen] the result was 410 pM (6 of 6 replicates).
With KISQSQLYESRNKNSVA / NASTRLS / QQYHRLPLS [GP_Gen] the result was 620 pM (6 of 6 replicates).
With KLSQSELYESRNKNSVA / NASCRES / QQYHRLPLS [GP_Gen] the result was 620 pM (6 of 6 replicates).
With KSSISYLEESRNKNSVA / EASTREA / QQYHRLPLS [GP_HC] the result was 650 pM (6 of 6 replicates).
With KVSQSQLYESRNKNSVA / NASLRES / QQYHRLPLS [GP_Gen] the result was 670 pM (6 of 6 replicates).

A sequence measured in both rounds can read differently, since the two assays cover different ranges. As a blank, each scFv also met three strains without target: over all light chain designs, 4% of these pairings were detected, typically at 430 nM and seldom below 38 nM.